Source: article PMC5299621 (The Journal of General Physiology, 2017)
“And” between values parts separate entries of the source, which are not always exact repeats. Equal entries are not always repeated.

Sequences of proteins named here, by UniProt entry; tags and fusion partners are left off.
UniProt O94759, whole entry: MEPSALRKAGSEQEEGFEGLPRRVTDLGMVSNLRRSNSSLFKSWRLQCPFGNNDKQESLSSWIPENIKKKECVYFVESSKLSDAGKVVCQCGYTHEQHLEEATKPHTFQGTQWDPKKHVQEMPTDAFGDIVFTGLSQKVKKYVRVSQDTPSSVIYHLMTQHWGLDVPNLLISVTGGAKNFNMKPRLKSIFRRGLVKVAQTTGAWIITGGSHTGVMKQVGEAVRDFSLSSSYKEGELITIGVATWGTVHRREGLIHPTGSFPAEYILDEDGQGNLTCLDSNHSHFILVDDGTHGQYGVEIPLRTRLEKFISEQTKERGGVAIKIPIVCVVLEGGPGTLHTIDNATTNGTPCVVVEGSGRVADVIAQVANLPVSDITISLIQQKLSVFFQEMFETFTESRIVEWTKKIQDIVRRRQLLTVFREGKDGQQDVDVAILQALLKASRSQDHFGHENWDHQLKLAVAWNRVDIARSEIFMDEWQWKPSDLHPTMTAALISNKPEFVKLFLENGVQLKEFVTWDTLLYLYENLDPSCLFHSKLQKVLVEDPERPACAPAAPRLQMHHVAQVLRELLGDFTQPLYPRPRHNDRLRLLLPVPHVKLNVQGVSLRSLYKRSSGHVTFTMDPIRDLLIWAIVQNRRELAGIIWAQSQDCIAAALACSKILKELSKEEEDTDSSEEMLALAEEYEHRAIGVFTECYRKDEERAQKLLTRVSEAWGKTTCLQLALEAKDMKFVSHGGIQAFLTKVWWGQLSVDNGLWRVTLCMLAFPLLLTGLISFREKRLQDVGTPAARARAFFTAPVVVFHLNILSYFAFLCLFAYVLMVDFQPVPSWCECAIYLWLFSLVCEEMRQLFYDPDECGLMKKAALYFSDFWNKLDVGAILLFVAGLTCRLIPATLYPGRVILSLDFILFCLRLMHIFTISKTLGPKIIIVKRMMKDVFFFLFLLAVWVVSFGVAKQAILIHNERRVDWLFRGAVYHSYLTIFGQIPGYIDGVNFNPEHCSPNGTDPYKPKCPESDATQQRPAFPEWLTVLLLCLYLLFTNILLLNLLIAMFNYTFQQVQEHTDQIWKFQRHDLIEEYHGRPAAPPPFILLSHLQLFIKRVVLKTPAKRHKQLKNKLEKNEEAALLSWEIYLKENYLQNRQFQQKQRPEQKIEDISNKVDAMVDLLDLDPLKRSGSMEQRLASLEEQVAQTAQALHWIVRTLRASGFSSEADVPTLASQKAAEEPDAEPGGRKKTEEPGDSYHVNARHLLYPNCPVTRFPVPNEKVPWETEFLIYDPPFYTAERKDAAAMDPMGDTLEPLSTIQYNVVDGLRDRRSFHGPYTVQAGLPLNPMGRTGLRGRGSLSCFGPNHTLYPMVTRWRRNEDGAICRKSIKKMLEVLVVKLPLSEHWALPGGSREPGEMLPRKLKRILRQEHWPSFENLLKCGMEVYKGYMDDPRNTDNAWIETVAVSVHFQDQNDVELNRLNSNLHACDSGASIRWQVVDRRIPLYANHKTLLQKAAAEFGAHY
UniProt O94759, whole entry H1346A: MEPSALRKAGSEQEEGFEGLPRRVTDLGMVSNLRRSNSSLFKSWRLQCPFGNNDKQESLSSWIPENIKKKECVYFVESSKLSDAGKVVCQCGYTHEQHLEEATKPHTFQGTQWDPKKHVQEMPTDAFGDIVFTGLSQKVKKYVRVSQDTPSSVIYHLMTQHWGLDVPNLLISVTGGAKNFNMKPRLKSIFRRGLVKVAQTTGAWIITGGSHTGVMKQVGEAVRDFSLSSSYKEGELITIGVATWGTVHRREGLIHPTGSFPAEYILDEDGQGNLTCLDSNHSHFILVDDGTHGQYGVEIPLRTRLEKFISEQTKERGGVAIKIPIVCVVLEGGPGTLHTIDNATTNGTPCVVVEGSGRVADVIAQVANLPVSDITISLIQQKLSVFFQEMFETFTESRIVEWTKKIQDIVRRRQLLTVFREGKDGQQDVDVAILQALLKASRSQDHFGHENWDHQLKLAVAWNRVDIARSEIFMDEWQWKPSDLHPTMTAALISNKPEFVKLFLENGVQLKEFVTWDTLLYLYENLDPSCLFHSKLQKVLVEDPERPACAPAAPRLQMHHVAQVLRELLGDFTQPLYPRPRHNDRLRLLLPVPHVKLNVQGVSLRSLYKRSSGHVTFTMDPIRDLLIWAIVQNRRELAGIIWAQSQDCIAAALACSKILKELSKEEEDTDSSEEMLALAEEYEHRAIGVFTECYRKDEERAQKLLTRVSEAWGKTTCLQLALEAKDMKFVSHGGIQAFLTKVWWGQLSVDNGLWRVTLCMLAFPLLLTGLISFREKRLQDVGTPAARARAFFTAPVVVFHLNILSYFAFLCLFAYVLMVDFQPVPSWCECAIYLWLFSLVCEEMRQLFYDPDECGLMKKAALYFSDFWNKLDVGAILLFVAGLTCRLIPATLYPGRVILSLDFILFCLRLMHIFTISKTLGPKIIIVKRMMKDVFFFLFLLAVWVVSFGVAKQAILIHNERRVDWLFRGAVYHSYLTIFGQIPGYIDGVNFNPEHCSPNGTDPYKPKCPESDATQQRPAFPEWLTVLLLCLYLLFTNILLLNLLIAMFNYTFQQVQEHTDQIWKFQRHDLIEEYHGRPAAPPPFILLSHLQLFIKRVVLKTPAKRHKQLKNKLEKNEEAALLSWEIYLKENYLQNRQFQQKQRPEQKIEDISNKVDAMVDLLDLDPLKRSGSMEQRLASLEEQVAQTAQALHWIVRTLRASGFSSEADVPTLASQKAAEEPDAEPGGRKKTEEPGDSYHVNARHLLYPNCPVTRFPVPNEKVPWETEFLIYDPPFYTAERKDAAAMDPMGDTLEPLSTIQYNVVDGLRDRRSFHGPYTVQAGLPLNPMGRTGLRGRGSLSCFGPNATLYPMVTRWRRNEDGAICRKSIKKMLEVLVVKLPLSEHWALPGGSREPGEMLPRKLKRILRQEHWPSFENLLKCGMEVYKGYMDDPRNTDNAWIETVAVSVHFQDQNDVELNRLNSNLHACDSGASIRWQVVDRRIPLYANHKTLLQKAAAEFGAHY
UniProt O94759, whole entry H1346W: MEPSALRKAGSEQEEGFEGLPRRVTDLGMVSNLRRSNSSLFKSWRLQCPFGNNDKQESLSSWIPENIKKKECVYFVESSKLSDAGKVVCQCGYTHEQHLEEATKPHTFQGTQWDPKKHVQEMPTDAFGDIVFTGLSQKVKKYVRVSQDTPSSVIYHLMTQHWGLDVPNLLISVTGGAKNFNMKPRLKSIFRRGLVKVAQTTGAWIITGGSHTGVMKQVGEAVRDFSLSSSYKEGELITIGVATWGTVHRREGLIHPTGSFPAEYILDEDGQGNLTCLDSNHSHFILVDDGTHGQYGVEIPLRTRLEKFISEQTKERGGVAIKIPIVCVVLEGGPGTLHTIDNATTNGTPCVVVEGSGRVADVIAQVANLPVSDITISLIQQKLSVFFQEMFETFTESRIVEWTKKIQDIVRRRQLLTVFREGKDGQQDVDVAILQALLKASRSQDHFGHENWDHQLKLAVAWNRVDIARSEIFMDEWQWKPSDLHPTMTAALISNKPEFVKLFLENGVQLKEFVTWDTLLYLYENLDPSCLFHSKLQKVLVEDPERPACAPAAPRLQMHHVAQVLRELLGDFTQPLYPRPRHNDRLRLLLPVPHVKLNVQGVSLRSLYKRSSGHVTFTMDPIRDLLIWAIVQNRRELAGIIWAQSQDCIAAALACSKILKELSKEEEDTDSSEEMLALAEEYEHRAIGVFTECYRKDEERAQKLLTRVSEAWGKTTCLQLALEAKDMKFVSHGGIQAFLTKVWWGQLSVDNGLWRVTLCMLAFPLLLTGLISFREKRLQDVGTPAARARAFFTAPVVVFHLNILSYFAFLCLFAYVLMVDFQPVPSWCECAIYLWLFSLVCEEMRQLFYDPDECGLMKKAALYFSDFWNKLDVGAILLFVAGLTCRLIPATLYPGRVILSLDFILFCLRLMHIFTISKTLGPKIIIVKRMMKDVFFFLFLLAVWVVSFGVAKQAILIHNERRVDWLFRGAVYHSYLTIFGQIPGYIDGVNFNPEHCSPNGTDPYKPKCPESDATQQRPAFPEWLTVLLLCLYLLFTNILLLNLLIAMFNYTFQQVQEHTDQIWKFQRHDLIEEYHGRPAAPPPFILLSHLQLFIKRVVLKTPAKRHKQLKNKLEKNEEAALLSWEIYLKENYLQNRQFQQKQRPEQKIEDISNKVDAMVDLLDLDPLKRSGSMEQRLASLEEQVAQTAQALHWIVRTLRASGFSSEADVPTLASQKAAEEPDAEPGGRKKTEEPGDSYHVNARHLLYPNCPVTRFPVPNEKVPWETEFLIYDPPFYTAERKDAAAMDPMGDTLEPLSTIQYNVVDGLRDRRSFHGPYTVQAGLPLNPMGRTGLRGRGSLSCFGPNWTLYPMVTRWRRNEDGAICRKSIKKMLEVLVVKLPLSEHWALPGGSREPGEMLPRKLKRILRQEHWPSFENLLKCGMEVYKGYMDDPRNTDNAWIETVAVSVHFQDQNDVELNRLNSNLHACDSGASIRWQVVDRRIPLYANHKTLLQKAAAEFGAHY
UniProt O94759, whole entry T1347A: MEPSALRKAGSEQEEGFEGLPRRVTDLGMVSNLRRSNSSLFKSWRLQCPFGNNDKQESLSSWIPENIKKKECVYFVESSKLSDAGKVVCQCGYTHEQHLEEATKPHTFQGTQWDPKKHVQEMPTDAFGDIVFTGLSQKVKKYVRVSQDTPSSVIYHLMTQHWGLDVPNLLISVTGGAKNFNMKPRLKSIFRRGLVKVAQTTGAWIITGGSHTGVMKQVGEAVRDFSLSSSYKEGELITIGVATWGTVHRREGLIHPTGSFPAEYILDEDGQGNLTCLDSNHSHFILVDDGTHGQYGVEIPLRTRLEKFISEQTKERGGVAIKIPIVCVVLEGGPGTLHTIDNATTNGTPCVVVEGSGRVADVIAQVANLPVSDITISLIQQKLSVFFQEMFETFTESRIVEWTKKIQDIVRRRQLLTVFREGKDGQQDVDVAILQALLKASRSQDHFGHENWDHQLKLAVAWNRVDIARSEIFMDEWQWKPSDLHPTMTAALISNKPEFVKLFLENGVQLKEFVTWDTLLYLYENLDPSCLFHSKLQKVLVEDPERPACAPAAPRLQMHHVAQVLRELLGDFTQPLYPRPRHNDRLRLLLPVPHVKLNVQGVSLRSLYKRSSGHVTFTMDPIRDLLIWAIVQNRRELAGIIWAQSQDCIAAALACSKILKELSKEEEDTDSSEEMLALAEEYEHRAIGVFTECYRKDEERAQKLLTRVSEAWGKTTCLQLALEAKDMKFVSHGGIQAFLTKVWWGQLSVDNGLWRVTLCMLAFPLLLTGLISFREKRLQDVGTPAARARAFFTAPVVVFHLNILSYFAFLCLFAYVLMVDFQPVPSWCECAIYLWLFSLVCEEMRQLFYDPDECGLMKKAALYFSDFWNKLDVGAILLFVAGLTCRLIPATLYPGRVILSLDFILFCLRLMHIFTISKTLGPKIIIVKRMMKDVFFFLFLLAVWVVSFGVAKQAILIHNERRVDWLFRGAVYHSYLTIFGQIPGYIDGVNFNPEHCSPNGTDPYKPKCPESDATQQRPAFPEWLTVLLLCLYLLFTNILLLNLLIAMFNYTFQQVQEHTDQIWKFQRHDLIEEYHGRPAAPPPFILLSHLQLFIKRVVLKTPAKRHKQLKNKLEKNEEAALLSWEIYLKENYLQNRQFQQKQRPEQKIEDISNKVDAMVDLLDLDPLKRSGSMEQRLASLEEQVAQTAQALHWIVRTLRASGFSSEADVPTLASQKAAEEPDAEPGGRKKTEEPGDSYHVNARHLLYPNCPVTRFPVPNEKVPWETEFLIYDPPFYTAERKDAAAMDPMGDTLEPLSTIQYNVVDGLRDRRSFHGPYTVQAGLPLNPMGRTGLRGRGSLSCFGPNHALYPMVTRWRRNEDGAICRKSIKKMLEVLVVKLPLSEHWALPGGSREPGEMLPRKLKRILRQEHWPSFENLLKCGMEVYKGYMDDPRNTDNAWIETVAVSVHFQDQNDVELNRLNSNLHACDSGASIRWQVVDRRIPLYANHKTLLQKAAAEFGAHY

Legend:
Assay type in all cases: cell-based
[1] = molecular target: hTRPM2 WT channel (Homo sapiens, UniProt O94759); assay: Whole-cell recording of ADPR-induced currents, HEK293 cells expressing WT hTRPM2; conditions: read-out: EC50 ± SEM, intracellular ADPR
[2] = molecular target: hTRPM2 H1346A mutant (Homo sapiens, UniProt O94759, H1346A); assay: Whole-cell ADPR-induced currents, HEK293, H1346A mutant
[3] = molecular target: hTRPM2 H1346W mutant (Homo sapiens, UniProt O94759, H1346W); assay: Whole-cell ADPR-induced currents, HEK293, H1346W mutant; conditions: read-out: EC50 ± SEM
[4] = molecular target: hTRPM2 T1347A mutant (Homo sapiens, UniProt O94759, T1347A); assay: Whole-cell ADPR-induced currents, HEK293, T1347A mutant
[5] = molecular target: hTRPM2 T1347F mutant (Homo sapiens, UniProt O94759, T1347F); assay: Whole-cell ADPR-induced currents, HEK293, T1347F mutant; conditions: read-out: EC50 ± SEM
[6] = molecular target: hTRPM2 T1347Y mutant (Homo sapiens, UniProt O94759, T1347Y); assay: Whole-cell ADPR-induced currents, HEK293, T1347Y mutant; conditions: read-out: EC50 ± SEM
[7] = molecular target: hTRPM2 Y1349A mutant (Homo sapiens, UniProt O94759, Y1349A); assay: Whole-cell ADPR-induced currents, HEK293, Y1349A mutant
[8] = molecular target: hTRPM2 Y1349I mutant (Homo sapiens, UniProt O94759, Y1349I); assay: Whole-cell ADPR-induced currents, HEK293, Y1349I mutant
[9] = molecular target: hTRPM2 L1379A mutant (Homo sapiens, UniProt O94759, L1379A); assay: Whole-cell ADPR-induced currents, HEK293, L1379A mutant
[10] = molecular target: hTRPM2 L1379S mutant (Homo sapiens, UniProt O94759, L1379S); assay: Whole-cell ADPR-induced currents, HEK293, L1379S mutant; conditions: read-out: EC50 ± SEM
[11] = molecular target: hTRPM2 S1391A mutant (Homo sapiens, UniProt O94759, S1391A); assay: Whole-cell ADPR-induced currents, HEK293, S1391A mutant; conditions: read-out: EC50 ± SEM
[12] = molecular target: hTRPM2 E1409A mutant (Homo sapiens, UniProt O94759, E1409A); assay: Whole-cell ADPR-induced currents, HEK293, E1409A mutant; conditions: read-out: EC50 ± SEM
[13] = molecular target: hTRPM2 E1409Q mutant (Homo sapiens, UniProt O94759, E1409Q); assay: Whole-cell ADPR-induced currents, HEK293, E1409Q mutant; conditions: read-out: EC50 ± SEM
[14] = molecular target: hTRPM2 D1431A mutant (Homo sapiens, UniProt O94759, D1431A); assay: Whole-cell ADPR-induced currents, HEK293, D1431A mutant
[15] = molecular target: hTRPM2 D1431N mutant (Homo sapiens, UniProt O94759, D1431N); assay: Whole-cell ADPR-induced currents, HEK293, D1431N mutant
[16] = molecular target: hTRPM2 R1433A mutant (Homo sapiens, UniProt O94759, R1433A); assay: Whole-cell ADPR-induced currents, HEK293, R1433A mutant
[17] = molecular target: hTRPM2 R1433K mutant (Homo sapiens, UniProt O94759, R1433K); assay: Whole-cell ADPR-induced currents, HEK293, R1433K mutant
[18] = molecular target: hTRPM2 R1433G mutant (Homo sapiens, UniProt O94759, R1433G); assay: Whole-cell ADPR-induced currents, HEK293, R1433G mutant
[19] = molecular target: hTRPM2 L1484V mutant (Homo sapiens, UniProt O94759, L1484V); assay: Whole-cell ADPR-induced currents, HEK293, L1484V mutant
[20] = molecular target: hTRPM2 H1488A mutant (Homo sapiens, UniProt O94759, H1488A); assay: Whole-cell ADPR-induced currents, HEK293, H1488A mutant
[21] = molecular target: hTRPM2 H1488F mutant (Homo sapiens, UniProt O94759, H1488F); assay: Whole-cell ADPR-induced currents, HEK293, H1488F mutant

Substance: adenosine diphosphate ribose [ADPR]
- EC50 [1]: ~40 µM and 40.5 µM
- EC50 [2]: > 1000 µM
- EC50 [3]: 112 ± 6.4 µM
- EC50 [4]: > 1000 µM
- EC50 [5]: 92.9 ± 11.2 µM
- EC50 [6]: 115 ± 13.4 µM
- EC50 [7]: > 1000 µM
- EC50 [8]: > 10000 µM
- EC50 [9]: 3 to 100 µM
- EC50 [10]: 10.8 ± 3.5 µM
- EC50 [11]: 3.5 ± 0.2 µM
- EC50 [12]: 506 ± 109 µM
- EC50 [13]: 5.4 ± 1.6 µM
- EC50 [14]: > 1000 µM
- EC50 [15]: > 100000 µM
- EC50 [16]: > 1000 µM
- EC50 [17]: > 1000 µM
- EC50 [18]: > 10000 µM
- EC50 [19]: 3 to 100 µM
- EC50 [20]: > 1000 µM
- EC50 [21]: > 10000 µM
